The other results are listed elsewhere or left out.
The compounds below were run on A. baumannii ATCC 17978 (assay: relative growth (fraction of control); higher = less inhibition). Details: 50 µM.

| Compound | relative growth |
| --- | --- |
| O=C(C[C@H]1CC[C@H]2[C@@H](COC[C@@H](O)CN2S(=O)(=O)c2ccc(Cl)cc2)O1)NCCN1CCCC1 | 1.08 |
| O=C(CN1CCOCC1)NCC[C@H]1CC[C@@H](NC(=O)Cc2ccccn2)[C@@H](CO)O1 | 1.04 |
| C[C@H](CO)N1C[C@H](C)[C@@H](CN(C)C(=O)Nc2ccc3c(c2)OCO3)Oc2cc(C#Cc3cccnc3)ccc2S1(=O)=O | 1.02 |
| C=CC[n+]1ccccc1/C=N/O | 1.02 |
| C[C@H]1CN([C@@H](C)CO)S(=O)(=O)c2ccc(C#CCN(C)C)cc2O[C@@H]1CN(C)C(=O)Nc1ccccc1F | 1.03 |
| CCN(Cc1ccncc1)C(=O)C(CO)c1ccccc1 (stereo unspecified) | 1.22 |
| NNC(=O)c1cccc(C(=O)NO)c1 | 0.821 |
| Cc1ccc(S(=O)(=O)N2CCN(CC(=O)N/N=C/c3ccccn3)CC2)cc1 | 0.707 |
| COc1cccc(S(=O)(=O)N[C@@H]2C=C[C@@H](CC(=O)NC3CCC3)O[C@@H]2CO)c1 | 1.07 |
| NNC(=O)CS(=O)(=O)c1ccc(C(F)(F)F)cn1 | 0.931 |
| CS(=O)(=O)N1CCCCC1 | 1.12 |
| COc1ccc2c3c(ccc2c1)-c1[nH]c2ccccc2c1CC3 | 0.971 |
| COc1cccc(-c2ccc3c(c2)O[C@H](CN(C)Cc2cncnc2)[C@@H](C)CN([C@H](C)CO)S3(=O)=O)c1 | 0.913 |
| COc1ccc(S(=O)(=O)N2C[C@H](O)COC[C@@H]3O[C@@H](CC(=O)NCc4ccc(Cl)c(Cl)c4)CC[C@H]32)cc1 | 0.791 |
| Cc1nnc(NCCc2ccccc2)n(N)c1=O | 0.885 |
| Cc1ncc([N+](=O)[O-])n1CCO | 0.917 |
| C[C@@H]1CN([C@@H](C)CO)S(=O)(=O)c2ccc(C#Cc3ccncc3)cc2O[C@@H]1CN(C)S(=O)(=O)c1ccc(F)cc1 | 1.04 |
| CN(C)c1ccsc1C(=O)NN | 0.871 |
| C[C@@H]1CN([C@@H](C)CO)C(=O)c2cc(C#CC3(O)CCCC3)cnc2O[C@@H]1CN(C)S(=O)(=O)c1ccc(F)cc1 | 0.965 |
| CO[C@@H]1CN(C)C(=O)c2ccc(NC(=O)C3CC3)cc2OC[C@@H](C)N(C(=O)CN2CCOCC2)C[C@@H]1C | 1.01 |
| CC/C(=C\c1ccccc1)C(=O)O | 1.02 |
| Cl.Cl.Fc1ccc(C(c2ccc(F)cc2)N2CCN(C/C=C/c3ccccc3)CC2)cc1 | 1.13 |

| Compound | relative growth |
| --- | --- |
| CC(C)(CO)NC(=S)NC[C@H]1CCCO1 | 1.16 |
| CC(=O)NCCCC[C@@H]1NC(=O)[C@@H]2C[C@H](C(=O)NCCCCCN)[C@H](c3ccc(O)cc3)N2C1=O | 1.05 |
| COc1ccc(COC[C@]23N=C4SCc5ccccc5CN4[C@H](c4ccccc4O2)[C@H]3COC(=O)NCCCCCC(=O)NO)cc1 | 0.89 |
| COc1cccc(-c2cn(CC[C@@H]3CC[C@@H](NS(=O)(=O)c4ccccc4Cl)[C@H](CO)O3)nn2)c1 | 0.868 |
| COc1cccc(S(=O)(=O)Nc2ccc3c(c2)[C@H]2C[C@@H](CC(=O)NCC(F)(F)F)O[C@@H](CO)[C@H]2O3)c1 | 1.15 |
| O=C1CN(c2ccccc2)C(=O)N1 | 0.952 |
| COCC#Cc1ccc2c(c1)O[C@H](CN(C)C(=O)c1ccccc1F)[C@@H](C)CN([C@@H](C)CO)S2(=O)=O | 0.984 |
| CC(C)C#Cc1ccc2c(c1)O[C@H](CN(C)C(=O)Cc1ccccn1)[C@H](C)CN([C@H](C)CO)S2(=O)=O | 0.99 |
| Cc1sc(/N=C/c2ccc(Cl)c(Cl)c2)c(C#N)c1C | 0.925 |
| Cl.Nc1ccc(/N=N/c2ccccc2)c(N)n1 | 0.958 |
| CCC(=O)N[C@@H]1C=C[C@@H](CC(=O)OC)O[C@H]1CO | 0.962 |
| COc1ccc2[nH]cc(CCNC(C)=O)c2c1 | 0.897 |
| O=C([O-])c1ccccc1O.[Na+] | 0.995 |
| OCC(O)[C@@H](O)CO (stereo partly specified) | 0.9 |
| CC(C)NC(=O)[C@@]1(C)c2ccccc2C(=O)N(Cc2cc(C(F)(F)F)cc(C(F)(F)F)c2)[C@H]1c1ccc(CO)cc1 | 0.807 |
| Cn1cnc(S(=O)(=O)N2C[C@@H](O)COC[C@@H]3O[C@H](CC(=O)NCc4ccc(F)cc4)CC[C@H]32)c1 | 1.05 |
| C=CCC[C@H](Cc1ccc(F)cc1)C(=O)OC[C@H](Cc1c[nH]c2ccccc12)NC(=O)[C@@H](CC=C)CC(=O)N[C@H](CO)Cc1ccccc1 | 0.879 |
| C[C@H](O)[C@H](O)[C@@H](O)[C@@H](O)/C=N/NC(=O)CCCCCC(=O)NO | 0.99 |
| CO[C@H]1CN(C)C(=O)c2cc(NS(C)(=O)=O)ccc2OC[C@@H](C)N(C(=O)CN(C)C)C[C@H]1C | 1.02 |
| C[C@@H]1CN([C@H](C)CO)C(=O)CCCn2cc(nn2)CO[C@H]1CN(C)C(=O)Nc1cccc2ccccc12 | 1.02 |
| COCCN1C[C@H](C(=O)O)CC1=O | 1.04 |
| CC(=O)N[C@@H](Cc1ccccc1)C(=O)O | 0.844 |

| Compound | relative growth |
| --- | --- |
| NCCN1CCO[C@H](c2ccccc2)C1 | 1.04 |
| CC(C)C1=CC2=CC[C@H]3[C@](C)(CO)CCC[C@]3(C)[C@@H]2CC1 | 0.968 |
| Cc1ccc(S(=O)(=O)N[C@@H]2CC[C@H](CC(=O)NCc3ccc(Cl)c(Cl)c3)O[C@H]2CO)cc1 | 1.14 |
| O=C1O[C@H](c2ccccc2)[C@H](c2ccccc2)N2[C@H]1[C@@H](C(=O)N1CCCCCCC1)[C@]1(C(=O)Nc3ccc(C#CC4=CCCCC4)cc31)[C@H]2c1ccc(O)cc1 | 1.02 |
| O=C(C[C@H]1CC[C@H]2[C@@H](COC[C@@H](O)CN2C(=O)c2ccccc2F)O1)N1CCN(c2ccccc2)CC1 | 0.932 |
| O=C(C[C@@H]1CC[C@@H]2[C@H](COC[C@H](O)CN2S(=O)(=O)c2ccc(Oc3ccccc3)cc2)O1)NCCN1CCCCC1 | 1.09 |
| CN(C)c1ccc(C(=C2C=CC(=[N+](C)C)C=C2)c2ccc(N(C)C)cc2)cc1.[Cl-] | 4.28 |
| COC(=O)/C=C1\N[C@H]2CCCC[C@@H]2NC1=O | 0.939 |
| CN(C)Cc1c(C(=O)N/N=C/c2ccncc2)nnn1-c1nonc1N | 1.02 |
| C[C@@H]1CN([C@H](C)CO)S(=O)(=O)c2ccc(C#Cc3ccc(F)cc3)cc2O[C@@H]1CN(C)S(=O)(=O)c1ccc(F)cc1 | 1.2 |
| CN(CCOc1ccc(CC2SC(=O)NC2=O)cc1)c1ccccn1.O=C(O)/C=C\C(=O)O (stereo unspecified) | 1.3 |
| COc1ccccc1CN1C(=O)c2ccccc2[C@](Cc2ccccc2I)(C(=O)NC2CC2)[C@@H]1c1ccc(CO)cc1 | 0.779 |
| O=C(Nc1ccccc1)N1c2ccccc2CCc2ccccc21 | 1.01 |
| O=C(C[C@@H]1CC[C@@H]2[C@H](COC[C@@H](O)CN2C(=O)Nc2cccc(Cl)c2)O1)NCCCN1CCOCC1 | 0.903 |
| Cc1ccc(-c2ccc(OC(=O)c3ccccc3F)cc2)cc1 | 1.11 |
| O=C(C[C@@H]1C[C@H]2c3cc(NC(=O)c4ccc5c(c4)OCO5)ccc3O[C@H]2[C@H](CO)O1)NCCc1ccccc1 | 1.15 |
| CCCn1c(N)nc2c1c(=O)n(C)c(=O)n2C | 0.96 |
| COc1cccc(-c2ccc3c(c2)O[C@H](CN(C)C(=O)C2CC2)[C@H](C)CN([C@@H](C)CO)S3(=O)=O)c1 | 0.81 |
| O=C(N[C@H]1CC=CC[C@H](CC(=O)N(CCO)Cc2ccccc2)C(=O)NCC(c2ccccc2)OC1=O)OCC1c2ccccc2-c2ccccc21 (stereo partly specified) | 1.16 |
| O=c1[nH]/c(=C/c2ccco2)c(=O)[nH]/c1=C\c1ccco1 | 0.824 |
| Cc1c(N2CCCC2)cc2c(c1-n1cccc1)C(C)(C)CC2(C)C | 0.99 |
| NCC[C@@H]1CC[C@@H](NC(=O)C2CCCCC2)[C@@H](CO)O1 | 1.01 |

| Compound | relative growth |
| --- | --- |
| CO[C@H](CN(C)S(=O)(=O)c1cccc(Cl)c1)[C@@H](C)CN([C@@H](C)CO)S(=O)(=O)c1cccc(Cl)c1 | 0.895 |
| Fc1ccc(-c2nc3c4ccccc4c4ccccc4c3[nH]2)cc1 | 1.08 |
| O=C(C[C@@H]1CC[C@@H](NS(=O)(=O)c2ccccc2)[C@H](CO)O1)NCc1ccncn1 | 1.02 |
| Br.CN1CCC[C@@H]1Cc1c[nH]c2ccc(CCS(=O)(=O)c3ccccc3)cc12 | 1.07 |
| C=CCC[C@H](Cc1ccc(F)cc1)C(=O)OC[C@H]1CCCN1C(=O)[C@H](CC=C)CC(=O)N(CCO)Cc1ccccc1 | 1.12 |
| C[C@H]1CN([C@@H](C)CO)S(=O)(=O)c2ccc(C#Cc3ccncc3)cc2O[C@H]1CN(C)C(=O)C1CCC1 | 1.01 |
| O=C(C[C@@H]1CC[C@H]2NC[C@H](O)COC[C@@H]2O1)NCCN1CCCC1 | 0.993 |
| CCCc1cc(=O)nc(SCC(N)=O)[nH]1 | 0.864 |
| O=C(OCc1ccco1)c1ccc(-c2ccc(Cl)cc2)s1 | 0.964 |
| Cn1cnc(S(=O)(=O)N2C[C@@H](O)COC[C@@H]3O[C@H](CC(=O)N4CCN(c5ccccc5)CC4)CC[C@H]32)c1 | 1.07 |
| O=C(C[C@H]1C=C[C@H](NC(=O)c2ccncc2)[C@@H](CO)O1)NCc1ccncn1 | 1.17 |
| CCC[C@H](NC(=O)[C@@H]1[C@H]2CCC[C@H]2CN1C(=O)[C@@H](NC(=O)[C@@H](NC(=O)c1cnccn1)C1CCCCC1)C(C)(C)C)C(=O)C(=O)NC1CC1 | 1.4 |
| O=c1c(O[C@@H]2O[C@H](CO)[C@@H](O)[C@H](O)[C@@H]2O[C@H]2OC[C@](O)(CO)[C@H]2O)c(-c2ccc(O)c(O)c2)oc2cc(O)cc(O)c12 | 1.05 |
| CCc1cccc2c3c([nH]c12)C(CC)(CC(=O)O)OCC3 (stereo unspecified) | 1.19 |
| Cc1noc(NS(=O)(=O)c2ccc(N)cc2)c1C | 0.965 |
| NC(CSSCC(N)C(=O)O)C(=O)O (stereo unspecified) | 0.837 |
| OCCNC(=S)c1ccccc1 | 1.15 |
| CCCCC(=O)O[C@]1(C(=O)CO)CC[C@H]2[C@@H]3CCC4=CC(=O)CC[C@]4(C)[C@H]3[C@@H](O)C[C@@]21C | 1.08 |
| Cc1ccc(CNc2ccccn2)o1 | 0.923 |
| CCCCc1cc(CCCC)n2nc(-c3ccccc3)cc2n1 | 1.01 |
